This note sets out measurements from article PMC6152727, “Potential of Icariin Metabolites from Epimedium koreanum Nakai as Antidiabetic Therapeutic Agents” (Molecules : A Journal of Synthetic Chemistry and Natural …, 2017).

The target in experiment [1] is T1, human recombinant PTP1B (Homo sapiens, UniProt P18031).
T1 construct: purchased Biomol International LP (Plymouth Meeting, PA, USA)
T1 sequence (P18031 1-435): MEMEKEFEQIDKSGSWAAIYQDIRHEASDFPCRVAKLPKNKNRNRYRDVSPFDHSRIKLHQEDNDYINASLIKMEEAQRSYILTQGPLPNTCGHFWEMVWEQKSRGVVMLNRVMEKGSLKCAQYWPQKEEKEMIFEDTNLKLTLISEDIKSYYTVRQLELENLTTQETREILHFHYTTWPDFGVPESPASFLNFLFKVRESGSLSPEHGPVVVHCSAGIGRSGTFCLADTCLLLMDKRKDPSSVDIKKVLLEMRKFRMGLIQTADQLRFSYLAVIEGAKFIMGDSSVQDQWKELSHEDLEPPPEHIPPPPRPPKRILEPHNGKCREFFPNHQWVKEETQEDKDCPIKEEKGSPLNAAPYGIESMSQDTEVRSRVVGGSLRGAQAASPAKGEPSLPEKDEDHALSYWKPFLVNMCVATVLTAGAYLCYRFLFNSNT
Nature of the experiment: Enzyme kinetics analysis of PTP1B (Lineweaver–Burk and Dixon plots). Format: biochemical. The conditions noted are these: determined by the Dixon plot. The method, then: The inhibition type and inhibition constant (Ki) of the two compounds were determined using Lineweaver–Burk and Dixon plots. Each line of the inhibitors penetrate the same point at the x-intercept, indicating noncompetitive-type inhibition, and the x-axis represent-Kiwhen 1/V = 0. Therefore, icaritin and icariside II are noncompetitive-type inhibitors of PTP1B (Figure 3). The Dixon plot is an established method for determining the enzyme inhibition type and the Ki value for an enzyme-inhibitor complex, where the value of the x-axis indicates Ki.
In order to determine the inhibition mechanism, two complementary kinetics methods were used: Lineweaver–Burk and Dixon plots. The level of enzymatic inhibition at various concentrations of test sample was evaluated by monitoring the effect of different substrate concentrations in Dixon plots (single reciprocal plots). Dixon plots for PTP1B inhibition were obtained in the presence of different concentrations of pNPP. Using Lineweaver–Burk plots (double reciprocal plots), the inhibition modes of the compounds were determined at various concentrations of pNPP with different concentrations of compounds. The enzymatic procedures were the same as for the PTP1B assay methods. The types of inhibition were investigated by interpreting the Dixon plots, in which the value of the x-axis indicates Ki.

For experiment [2], the target named is T1, human recombinant PTP1B. Kind of experiment: PTP1B activity assay (pNPP substrate). Type of experiment: biochemical. The note with it: read-out: PTP1B IC50; mean ± SEM of triplicate experiments. The method, then:
The abilities of the aerial parts of E. koreanum and their constituents to inhibit human recombinant PTP1B activity were evaluated using pNPP as a substrate. […] After incubation at 37 °C for 20 min in the dark, the reaction was terminated by addition of 10 M NaOH. The amount of p-nitrophenylate produced by enzymatic dephosphorylation of pNPP was determined by measuring the absorbance at 405 nm using a microplate spectrophotometer (Molecular Devices). Non-enzymatic dephosphorylation of pNPP was corrected by measuring the increase in absorbance at 405 nm obtained in the absence of PTP1B. […] The percent inhibition was calculated as {(AC − AS)/AC} × 100, where AC is the absorbance of the control, and AS is the absorbance of the sample. The IC50 is expressed as the mean ± SEM of triplicate experiments.

On to icariside II, for which the Ki in experiment [1] worked out at 11.7 µM. Also, the IC50 in experiment [2] turned out to be 9.94 ± 0.15 µM.
